# Source: PubChem (several laboratories)
# MLLE-PAM2 inh: blocks PAM2 peptide binding to the PABP1 MLLE domain; GST-MLLE / FITC-PAM2 fluorescence polarization; inhibition, % at 20 µM; 0.36% of 360,000 active; in the data active = inhibition above about 35%, passing the limit was not always enough;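 note: plate controls were DMSO wells with GST-MLLE for no effect and wells lacking GST-MLLE protein for full effect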
# eIF4H FP inh: inhibitors of RNA binding by human eIF4H; 0.94% of 290,000 active; AID 2012; inhibition, % at 35 µM; eIF4H fluorescence polarization binding assay;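 note: calls also rest on retests at 20 µM and on dose response follow-up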
# PABP polyA inh: blocks human PABP binding to poly(A) RNA; P11940; fluorescence polarization; calls only at 35 µM; 1% of 290,000 active; AID 2014;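 note: calls also rest on retests at 20 µM and on dose response follow-up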
# Pemphigus Ab inh: blocks pemphigus antibody binding to human desmoglein-3. 0.48% of 310,000 active. binding (percent of control), % at 10 µM. DSG3-coupled beads, scFv-anti-DSG3-GFP binding, flow cytometry; hits give low values. P32926;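 active = binding more than 3 SD below its plate's average and above zero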;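 note: hits lower antibody fragment binding to DSG3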
# Yeast UUG start-1: modulators of start codon recognition fidelity in yeast. S. cerevisiae UUG-firefly luciferase reporter, luminescence/redox ratio. activity score, % at 18.7 µM. 0.13% of 350,000 active. AID 602363;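 active = replicate mean at a twofold rise or more, about +100% in these data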;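 also: firefly luciferase made from a UUG start codon reports start codon fidelity; reporter light over untreated wells divided by growth signal over untreated wells; some hits fall short of that in this replicate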
# Yeast UUG start-2: yeast start codon fidelity modulation; S. cerevisiae UUG-start firefly luciferase, luminescence, 4 h; 100% means double the DMSO signal; 540 tested, under 10 active; shares compounds with Yeast UUG start-1; activation, % at 38 µM;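 active = signal increase whose fitted curve reaches an absolute level of 40 at a concentration under 10 µM; inactive = activity opposite to the expected increase, or the rest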
# Active calls of the source: *; i = inactive; . = no result. An excerpt weighted towards active compounds, which were near 1.5% of everything screened. Unless noted, the rule behind the calls is not given here.
# Values run as follows: MLLE-PAM2 inh | eIF4H FP inh | PABP polyA inh | Pemphigus Ab inh | Yeast UUG start-1 | Yeast UUG start-2
[1] CCc1ccc(/C=N/NC(=O)c2cc(-c3ccncc3)nc3ccccc23)s1
  -3 | -5 | i | 102 | . | .
[2] O=C(C[C@H]1CC[C@@H]2[C@H](COC[C@H](O)CN2C(=O)c2ccc3c(c2)OCO3)O1)NC1Cc2ccccc2C1
  . | . | . | . | -1 | .
[3] Cc1noc(C)c1S(=O)(=O)N1CCCC(C(=O)Nc2cccnc2)C1 (configuration not stated)
  -1 | -8 | i | 103 | 614* | -4
[4] CNC(=O)c1ccccc1NC(=O)c1cccc(S(=O)(=O)N2CCC(C)CC2)c1
  -4 | -2 | i | 107 | . | .
[5] CNC(=O)c1ccccc1NC(=O)c1cccc(S(=O)(=O)N2CCCCC2)c1
  2 | -1 | i | . | 188* | -3
[6] C[C@@H]1CCCCO[C@H](CN(C)C(=O)Nc2ccc(F)cc2)[C@H](C)CN([C@H](C)CO)C(=O)c2cc(NC(=O)Cc3ccccc3)ccc2O1
  . | . | . | . | -12 | .
[7] N#Cc1cccc(-c2ccc([C@@H]3[C@H](CO)N4CCCCN(C(=O)Nc5ccccc5)C[C@@H]34)cc2)c1
  . | . | . | . | -7 | .
[8] COc1ccc(NC(=S)N(CCc2ccncc2)C(C)C)cc1Cl
  -21 | . | . | 102 | -15 | .
[9] CC(C)N(CCc1ccncc1)C(=S)Nc1ccc(F)c(Cl)c1
  -64 | -6 | i | 101 | 263* | -11
[10] Cc1ccc(S(=O)(=O)N(C)C[C@H]2OCCCC[C@H](C)Oc3ccc(NS(=O)(=O)c4ccc(F)cc4)cc3C(=O)N([C@H](C)CO)C[C@H]2C)cc1
  . | . | . | . | -11 | .
[11] O=C(Nc1cccnc1Cl)c1cccc(F)c1
  . | 19 | i | . | . | .
[12] Cc1cccc(C(=O)Nc2cccnc2Cl)c1
  -12 | -11 | i | 101 | 146* | 1
[13] COc1cc(S(=O)(=O)N2CCOCC2)ccc1N
  8 | -4 | i | 102 | . | .
[14] COc1cc(S(=O)(=O)N2CCOCC2)ccc1F
  -8 | -5 | i | 100 | 196* | -1
[15] C/C=C/c1ccc2c(c1)O[C@@H](CN(C)Cc1cncnc1)[C@@H](C)CN([C@H](C)CO)S2(=O)=O
  . | . | . | . | 110* | i
[16] CC(C)C#Cc1ccc2c(c1)O[C@@H](CN(C)Cc1ccccn1)[C@@H](C)CN([C@H](C)CO)S2(=O)=O
  . | . | . | . | 61* | i
[17] CCC(=O)N(C)C[C@@H]1Oc2cc(C#Cc3ccccc3)ccc2S(=O)(=O)N([C@H](C)CO)C[C@@H]1C
  . | . | . | . | 0 | .
[18] CCC(=O)N(C)C[C@@H]1Oc2cc(C#Cc3ccccc3)ccc2S(=O)(=O)N([C@@H](C)CO)C[C@@H]1C
  . | . | . | . | 183* | i
[19] C/C=C/c1ccc2c(c1)O[C@@H](CN(C)Cc1cccc(F)c1)[C@@H](C)CN([C@H](C)CO)S2(=O)=O
  . | . | . | . | 105* | i
[20] COCC#Cc1ccc2c(c1)O[C@H](CN(C)Cc1cccnc1)[C@@H](C)CN([C@@H](C)CO)S2(=O)=O
  . | . | . | . | -10 | .

# Gathered by group, those above with an aryl methoxy group (three)
# Values run as follows: MLLE-PAM2 inh | eIF4H FP inh | PABP polyA inh | Pemphigus Ab inh | Yeast UUG start-1 | Yeast UUG start-2
[8] COc1ccc(NC(=S)N(CCc2ccncc2)C(C)C)cc1Cl
  -21 | . | . | 102 | -15 | .
[13] COc1cc(S(=O)(=O)N2CCOCC2)ccc1N
  8 | -4 | i | 102 | . | .
[14] COc1cc(S(=O)(=O)N2CCOCC2)ccc1F
  -8 | -5 | i | 100 | 196* | -1

# Next results.
# Values run as follows: MLLE-PAM2 inh | eIF4H FP inh | PABP polyA inh | Pemphigus Ab inh | Yeast UUG start-1 | Yeast UUG start-2
[21] CC(=O)N(C)C[C@@H]1Oc2cc(C#C[C@@H](C)O)ccc2S(=O)(=O)N([C@@H](C)CO)C[C@@H]1C
  . | . | . | . | 121* | i
[22] COCC#Cc1ccc2c(c1)O[C@@H](CN(C)Cc1cccnc1)[C@@H](C)CN([C@@H](C)CO)S2(=O)=O
  . | . | . | . | 154* | i
[23] C[C@H](O)C#Cc1ccc2c(c1)O[C@H](CN(C)Cc1cncnc1)[C@@H](C)CN([C@@H](C)CO)S2(=O)=O
  . | . | . | . | 0 | .
[24] CC(=O)N(C)C[C@@H]1Oc2cc(C#C[C@H](C)O)ccc2S(=O)(=O)N([C@H](C)CO)C[C@@H]1C
  . | . | . | . | -5 | .
[25] C[C@@H](O)C#Cc1ccc2c(c1)O[C@@H](CN(C)Cc1cncnc1)[C@@H](C)CN([C@@H](C)CO)S2(=O)=O
  . | . | . | . | 103* | i
[26] C[C@H](CO)N1C[C@H](C)[C@H](CN(C)Cc2ccccc2)OCCCC[C@H](C)Oc2ccc(NC(=O)Nc3cccc4ccccc34)cc2C1=O
  . | . | . | . | 8 | .
[27] C[C@H]1CN([C@@H](C)CO)C(=O)c2cccc(NC(=O)C3CCCCC3)c2O[C@@H]1CN(C)C(=O)NC1CCCCC1
  . | . | . | . | 5 | .
[28] COc1nc(C)ccc1-c1noc(-c2cccs2)n1
  -2 | 2 | i | 101 | 528* | -24
[29] COc1nc(-c2ccccc2)ccc1-c1noc(-c2cccs2)n1
  -47 | . | . | . | -12 | .
[30] Cc1ccc(S(=O)(=O)N(C)C[C@H]2Oc3ccc(NC(=O)CCCN(C)C)cc3CC(=O)N([C@H](C)CO)C[C@H]2C)cc1
  . | . | . | . | 5 | .
[31] COc1ccc(NC(=S)N2CCCC2c2ccc(OC)c(OC)c2)cc1 (configuration not stated)
  -123 | -5 | i | 103 | 339* | 3
[32] COc1ccc(C2CCCN2C(=S)Nc2cccc(C)c2)cc1OC (configuration not stated)
  -138 | -13 | i | 100 | . | .
[33] CCc1ccc(N2CCN(CCNC(=O)Nc3ccccc3)CC2)cc1
  -4 | 14 | i | 97 | -4 | .
[34] CCc1ccc(NC(=O)NCCN2CCCCC2)cc1
  -5 | 6 | i | 124 | 108* | 2
[35] Cc1ccc(N/C(N)=N/c2nc(CSc3nnc(C)s3)cc(=O)[nH]2)c(C)c1
  -1 | 0 | i | 99 | . | .
[36] COc1ccc(N/C(N)=N/c2nc(CSc3nnc(C)s3)cc(=O)[nH]2)cc1
  -7 | -5 | i | 96 | 172* | -2
[37] CN(CC(=O)Nc1cc([N+](=O)[O-])ccc1Cl)Cc1ccc(Br)cc1
  -52 | -4 | i | 103 | 518* | 3
[38] O=C(CN1CCCc2ccccc21)N/N=C/c1ccccc1O
  2 | 2 | i | 101 | 67* | 10
[39] O=C(CN1CCCc2ccccc21)N/N=C/c1ccc(F)cc1F
  -33 | -2 | i | 100 | -22 | .
[40] COc1ccc(Nc2cc(C)nc(NCc3ccccc3)n2)cc1
  0 | -3 | i | 104 | 624* | -7
[41] CC(C)NC(=O)N(C)C[C@@H]1Oc2ccc(NC(=O)Nc3cccc4ccccc34)cc2C(=O)N([C@@H](C)CO)C[C@@H]1C
  . | . | . | . | 151* | i
[42] C[C@@H]1CN([C@@H](C)CO)C(=O)Cc2cc(NS(=O)(=O)c3ccccc3)ccc2O[C@H]1CN(C)Cc1ccc(C(F)(F)F)cc1
  . | . | . | . | 159* | i
[43] C[C@@H]1CN([C@@H](C)CO)C(=O)Cc2cc(NS(=O)(=O)c3ccccc3)ccc2O[C@@H]1CN(C)Cc1ccc(C(F)(F)F)cc1
  . | . | . | . | -9 | .
[44] C[C@H]1CCCCO[C@@H](CN(C)Cc2ccccc2)[C@@H](C)CN([C@@H](C)CO)C(=O)c2cc(NC(=O)c3ccccc3)ccc2O1
  . | . | . | . | 147* | i
[45] C[C@@H]1CN([C@H](C)CO)C(=O)c2cc(C#Cc3cccc(F)c3)cnc2O[C@H]1CN(C)C(=O)C1CCC1
  . | . | . | . | 11 | .
[46] CCC(=O)N[C@@H]1CC[C@H](CCNC(=O)Nc2ccc(F)cc2)O[C@H]1CO
  . | . | . | . | -14 | .
[47] O=C(O)CSc1nnc(-c2ccc(Cl)cc2)n1-c1ccccc1
  -142 | 7 | i | 100 | 124* | 0

# Taken from above.
# compound 43 | Yeast UUG start-1: -9
# compound 41 | Yeast UUG start-1: 151*
# compound 42 | Yeast UUG start-1: 159*
# compound 44 | Yeast UUG start-1: 147*
# compound 45 | Yeast UUG start-1: 11
